Assay results: patent US20230083670A1

What was measured:
[1] = target: CD47 on Jurkat cells (UniProt Q08722); assay: blocking of SIRPa-Fc binding to CD47, flow cytometry; Raji-PD-L1 cells
[2] = target: CD47 on Jurkat cells (UniProt Q08722); assay: blocking of SIRPa-Fc binding to CD47, flow cytometry; PD-L1 negative Raji cells

IMM01
IC50 [1]: 0.0547 µM | IC50 [2]: 0.0842 µM
